Reference: PMC7680358 (European journal of medicinal chemistry, 2020)

Columns and labels:
in vitro = conditions: human, A549 lung carcinoma cells
[1] = 60 min
A549 lung carcinoma = conditions: read-out: CC50 A549; MTT assay
[2] = system: HepG2 hepatocellular carcinoma; conditions: read-out: CC50 HepG2; MTT assay

O=C(O)c1ccc(C(F)(F)F)cc1C(=O)c1ccc(Sc2ccc(Cl)c(Cl)c2)c([N+](=O)[O-])c1 [8e, 2-(4-((3,4-Dichlorophenyl)thio)-3-nitrobenzoyl)-4-(trifluoromethyl)benzoic acid]
CC50 (in vitro): 1840 µM

NC(=O)N1c2ccccc2C=Cc2ccccc21 [CBZ, carbamazepine]
% Metabolism 50 μM ([1]; 50 μM, 1 mg/ml rat liver microsome, NADPH, 37 °C): 48.86 ± 5.27%
average percentage of the remaining compound ([1]; average over 10 μM and 50 μM, rat liver microsomes): 45%

Cisplatin [DDP]
CC50 (A549 lung carcinoma): 5.26 ± 0.32 µM
CC50 [2]: 4.35 ± 0.23 µM
